The values below come from ChEMBL document CHEMBL4811262, “Parallel discovery of selective and dual inhibitors of tryptophan dioxygenases IDO1 and TDO2 with a newly-modified enzymatic assay” (Bioorg Med Chem, 2021).

Chains of the proteins cited; added tags and fusions are not shown. Lines headed by an entry give the natural chain unless they say otherwise; changes in a name come on top.
UniProt P14902, whole entry, looked up: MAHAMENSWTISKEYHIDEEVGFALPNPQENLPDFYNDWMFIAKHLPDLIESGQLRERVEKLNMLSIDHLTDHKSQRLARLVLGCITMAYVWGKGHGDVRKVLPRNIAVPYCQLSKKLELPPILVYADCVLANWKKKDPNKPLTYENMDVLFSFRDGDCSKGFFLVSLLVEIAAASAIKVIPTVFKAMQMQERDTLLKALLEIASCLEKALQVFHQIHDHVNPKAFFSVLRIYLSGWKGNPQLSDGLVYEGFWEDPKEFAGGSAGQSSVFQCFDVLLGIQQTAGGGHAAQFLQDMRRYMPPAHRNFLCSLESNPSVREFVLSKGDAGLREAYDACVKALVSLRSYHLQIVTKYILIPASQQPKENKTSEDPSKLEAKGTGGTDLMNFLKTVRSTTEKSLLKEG
UniProt P48775: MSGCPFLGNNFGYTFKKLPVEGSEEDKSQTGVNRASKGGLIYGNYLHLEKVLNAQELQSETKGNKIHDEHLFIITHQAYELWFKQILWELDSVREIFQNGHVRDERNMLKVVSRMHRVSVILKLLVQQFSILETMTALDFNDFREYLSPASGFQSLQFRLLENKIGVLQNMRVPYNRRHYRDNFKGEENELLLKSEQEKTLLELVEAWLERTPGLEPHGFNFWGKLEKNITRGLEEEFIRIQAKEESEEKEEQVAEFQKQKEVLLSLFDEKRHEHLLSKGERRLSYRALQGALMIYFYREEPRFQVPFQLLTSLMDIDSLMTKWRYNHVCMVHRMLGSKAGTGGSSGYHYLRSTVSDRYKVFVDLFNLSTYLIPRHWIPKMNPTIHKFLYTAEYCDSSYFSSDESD

Assay [1] has as its target Indoleamine 2,3-dioxygenase 1 (Homo sapiens, UniProt P14902).
Assay [2] has as its target Tryptophan 2,3-dioxygenase (Homo sapiens, UniProt P48775). Description: Inhibition of recombinant human TDO2 expressed in Escherichia coli BL21 (DE3) assessed as reduction in N-formylkynurenine formation using L-tryptophan as substrate incubated for 30 mins by methylene blue reagent based concurrent assay.

Turning to `Nc1cccc2c([As](=O)(O)O)cccc12`, the half-maximal inhibitory concentration (IC50) (as a rule, the concentration needed to halve the response being measured) in assay [1] is 45.7 µM; in assay [2] it was 37.9 µM.
